Shown are actives, neighbours in structure and some others; about 0.46% of the full set was active somewhere.
HCMV NEC inh = disrupts HCMV UL50-UL53 complex binding; inhibition, % (no concentration beside the values); actives 0.15% (n = 190,000); HTRF UL50-UL53 interaction, normalized percent inhibition; AID 1918969; in the data active = inhibition above about 27%, passing the limit was not always enough
GIV-Gai inh = inhibitors of GIV peptide binding to Galpha-i3, primary screen, biochemical, fluorescence polarization, FITC-GIV GBA peptide, rat Galphai3. Guanine nucleotide-binding protein G(i) subunit alpha-3 (Rattus norvegicus), P08753. 90 min; stronger effect = lower value; scaled: aluminum fluoride 0%, vehicle 100%. percent of control (FP), % (test concentration not listed). hit rate 0.42% among 210,000. AID 1224905, 2016;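 active = replicate mean at 85% of control or lower, very high polarization wells dropped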;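 note: wells of about 15 µL received 100 nL stock; the first replicate is given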
GIV Gai FP conf = confirmation of inhibitors of GIV binding to rat Galpha-i3. shares compounds with GIV-Gai inh. FITC-GIV peptide binding to Galphai3, fluorescence polarization; active compounds read low. fluorescence polarization, mP at 100 µM. actives 38% (n = 580);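 active = inhibition score of 15 or more, meaning 100 minus mean polarization as percent of control over three replicates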;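 also: lower mP means peptide displaced from Galphai3 so more inhibition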
GIV Gai AS conf = GIV-Galpha-i3 inhibition, AlphaScreen confirmation. shares compounds with GIV-Gai inh. AlphaScreen Galphai3-GIV binding, purified proteins, 90 min; active compounds read low. AlphaScreen counts at 100 µM. actives 39% (n = 580);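 active = inhibition score at or above a set limit, where the score is 100 minus the three-replicate mean percent of control signal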
A number is an active result; 0 = inactive; - = no result.

Sequences of proteins named here, by UniProt entry; tags and fusion partners are left off.
Guanine nucleotide-binding protein G(i) subunit alpha-3 (Rattus norvegicus), P08753, UniProt P08753, whole entry, looked up: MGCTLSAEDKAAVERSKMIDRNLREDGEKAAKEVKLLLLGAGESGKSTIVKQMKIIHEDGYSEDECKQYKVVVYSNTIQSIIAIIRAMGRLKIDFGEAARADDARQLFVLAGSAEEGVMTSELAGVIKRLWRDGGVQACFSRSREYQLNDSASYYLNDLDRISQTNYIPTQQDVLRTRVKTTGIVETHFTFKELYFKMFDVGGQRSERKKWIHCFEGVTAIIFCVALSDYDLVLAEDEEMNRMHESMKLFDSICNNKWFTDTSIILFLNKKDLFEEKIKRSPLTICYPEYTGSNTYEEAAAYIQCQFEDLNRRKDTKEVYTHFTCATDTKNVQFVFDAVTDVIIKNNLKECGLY

SMILES	HCMV NEC inh	GIV-Gai inh	GIV Gai FP conf	GIV Gai AS conf
COc1ccc(/C=C2\N=C(c3ccc(Cl)cc3)N(c3ccc(C)cc3C)C2=O)cc1OC	-	0	-	-
COc1ccc(/C=C2\N=C(c3ccc(Cl)cc3)N(c3cccc(C)c3)C2=O)cc1OC	-	0	-	-
COc1ccc(/C=C2\N=C(c3ccc(Cl)cc3)N(c3cccc(F)c3)C2=O)cc1OC	-	0	0	0
COc1ccc(-c2nc3c(n2O)CCC/C3=N\O)cc1	0	0	-	-
Cc1ccc(-n2nc3c(n2)/C(=N/O)CCC3)cc1	47	79	0	23948
C=CCOc1ccc(/C=C2\Oc3ccc(C(=O)OC)cc3C2=O)cc1	-	0	-	-
Cc1ccc(C2C=C(c3ccccc3)Nc3nc(NS(=O)(=O)c4ccc(C)cc4)nn32)cc1 (centres undefined)	-	0	-	-
CS(=O)(=O)Nc1nc2n(n1)C(c1ccccc1)C=C(c1ccccc1)N2 (centres undefined)	-	53	44	0
CCSc1nc2c(c(=O)n1-c1ccc(C)cc1)SCC2	0	-	-	-
CN(C)S(=O)(=O)c1cccc(COC(=O)c2cccnc2N)c1	0	-	-	-
CCOc1ccccc1CNC(=O)c1cc2cc(S(=O)(=O)N3CCCCC3)ccc2n1C	-	0	-	-
Cn1c(C(=O)NCc2ccccc2F)cc2cc(S(=O)(=O)N3CCCCC3)ccc21	-	0	0	0
O=C(CCN1C(=O)c2ccccc2S1(=O)=O)Nc1ccccc1Br	0	0	-	-
COc1ccc(/C(O)=C/c2nc3cc(C)ccc3oc2=O)c(OC)c1	0	54	0	0
Cc1ccc2oc(=O)c(/C=C(\O)c3ccco3)nc2c1	0	0	-	-
CN1CCN(C(=O)c2cc3n(n2)CC(C)(C(=O)NC2CCCC2)N(C)C3=O)CC1 (centres undefined)	0	0	-	-
CCN1C(C)=C(C)S/C1=C1\SC(=S)N(C2CCCCC2)C1=O	0	0	0	0
CCN1C(C)=C(C)S/C1=C1\SC(=S)N(NC(C)=O)C1=O	-	0	-	-
Cc1nn(-c2ccccc2)c2sc(C(=O)NC(=S)NC3CCSC3=O)cc12 (centres undefined)	-	85	0	15795
Cc1nn(-c2ccc(Cl)cc2)c2sc(C(=O)NC3CCCc4ccccc43)cc12 (centres undefined)	-	0	-	-
NNC(=O)c1cccc(NN)n1	0	-	-	-
O=C1N=c2ccccc2=C1N=Nc1c(O)[nH]c2ccccc12	0	57	51	9884
O=C1CSC(N=Nc2c(O)[nH]c3ccccc23)=N1	0	0	-	-
CC(C)Cc1ccc(C(C)NC(C)CC(N)=O)cc1 (centres undefined)	0	-	-	-
CC(=O)Nc1ccc(C)cc1-c1nnc(SCc2cccc(Br)c2)[nH]c1=O	0	0	-	-
SMILES	HCMV NEC inh	GIV-Gai inh	GIV Gai FP conf	GIV Gai AS conf
O=C(c1cccs1)N1N=C(c2ccccc2)CC1c1ccccc1[N+](=O)[O-] (centres undefined)	0	0	-	-
CC1CCC/C(=N/NC(=O)Cn2nnc3ccccc32)C1 (centres undefined)	0	-	-	-
CCOC(=O)C1=C(C)N=c2s/c(=C\c3cc([N+](=O)[O-])ccc3N3CCOCC3)c(=O)n2C1c1cccc(OC)c1 (centres undefined)	0	0	0	0
CCOC(=O)C1=C(C)N=c2s/c(=C\c3cc([N+](=O)[O-])ccc3N3CCOCC3)c(=O)n2C1c1ccccc1 (centres undefined)	0	0	-	-
COc1ccc2nc(NC(=O)Nc3ccc(C)cc3Cl)sc2c1	0	0	-	-
Cc1ccc(C)c(OCC(O)Cn2c(C3CC3)nc3ccccc32)c1 (centres undefined)	0	0	-	-
CCN(CC)C(=O)CSc1nc(N)cc(=O)[nH]1	0	-	-	-
CCn1nc(N)c2c(O)[nH]c(=O)cc21	-	41	34	25115
O=C(Nc1ccc(C(F)(F)F)cc1)C1=NCCN1	0	0	-	-
Nc1nc2c3cccc4cccc(c(=O)n2n1)c43	0	80	0	0
Cc1cc2nc3c4cccc5cccc(c(=O)n3c2cc1C)c54	-	0	-	-
CCn1c2c(c3ccccc31)CN(C(=O)C1CCC1)CC2	-	51	20	14471
CCn1c(C)c(CN2CCC(C(=O)N3CCCC3)CC2)c2ccccc21	-	0	-	-
CC1=C(c2ccc(C(C)C)cc2)S(=O)(=O)N=C1N1CCC(C(=O)NCC2CCCO2)CC1 (centres undefined)	0	0	-	-
Cc1cc2c(NC(=O)CC(C)(C)CC(=O)O)cccc2nn1	0	0	-	-
Cc1cc2c(NC(=O)COCC(=O)O)cccc2nn1	0	73	55	16084
Cc1cccc(NC(=O)c2[nH]c(C)c(S(=O)(=O)N3CCCC3)c2C)c1C	0	0	-	-
CCn1c2ccccc2c2nc3cc4ccccc4cc3nc21	0	44	39	0
CCn1c2ccc(OC)cc2c2nc3ccccc3nc21	0	0	-	-
Cc1cccc(-n2nnc(-c3ccc(C(C)(C)C)cc3)n2)c1	-	0	-	-
Cc1nnc(-c2ccc(Cl)cc2)nc1N1CCC2(CC1)OCCO2	-	0	-	-
CC1=CC(=Nc2c(C)n(C)n(-c3ccccc3)c2=O)c2ccccc2C1=O	0	0	-	-
Cc1c(N=c2c(=O)c3ccccc3c2=O)c(=O)n(-c2ccccc2)n1C	-	62	47	0
O=C1/C(=C/c2ccc(Cl)cc2)C=C(c2ccccc2)N1c1ccc(Cl)cc1	-	82	0	0
O=C1/C(=C/c2ccc(Cl)cc2)C=C(c2ccccc2)N1c1ccccc1	-	0	-	-
SMILES	HCMV NEC inh	GIV-Gai inh	GIV Gai FP conf	GIV Gai AS conf
COc1ccc2sc(N)nc2c1	0	0	-	-
CC1=NN(c2ccccc2)C(=O)C1C(c1ccc2c(c1)OCO2)C1C(=O)N(c2ccccc2)N=C1C (centres undefined)	-	72	0	17537
CC1=NN(c2ccccc2)C(=O)C1C(c1ccccc1)C(C#N)C#N (centres undefined)	-	0	-	-
COc1ccc(C(=O)Oc2ccc(C=C3C(=O)NC(=O)NC3=O)cc2Cl)cc1	76	76	0	24807
COc1cc(C=C2C(=O)NC(=O)NC2=O)ccc1OC(=O)c1cc(F)c(F)cc1Cl	0	0	-	-
CN(C)c1ccc(CN)cc1	0	0	-	-
CCc1[nH]nc2c1C1(C(=O)Nc3ccccc31)C(C#N)=C(N)O2 (centres undefined)	-	0	-	-
Cc1cccc(NC(=O)c2sc3nc4c(cc3c2N)CN(Cc2ccccc2)CC4)c1	0	0	-	-
Nc1c(C(=O)Nc2cccc(Cl)c2)sc2nc3c(cc12)CN(Cc1ccccc1)CC3	0	79	0	0
COc1ccc(NC(=O)c2sc3nc4c(cc3c2N)CCCCCC4)cc1OC	0	80	0	0
COc1ccccc1NC(=O)c1sc2nc3c(cc2c1N)CCCCCC3	0	0	-	-
COc1ccc2c(=O)c3c(oc2c1)C(=O)N(CCN1CCOCC1)C3c1ccccc1 (centres undefined)	0	0	-	-
O=C(NCCn1c(-c2ccccc2)nc2cccnc21)c1ccc(Cl)cc1	0	0	-	-
CN(C)CCNC(=O)c1ccc(-n2c(-c3ccccc3)nc3cccnc32)cc1	0	83	0	0
O=C(NCc1ccccc1)C1C2CC3OC(=O)C1C3C2 (centres undefined)	0	0	-	-
Nc1nnc(CCC(=O)O)c(=O)[nH]1	0	0	-	-
CC1=NN(c2ccc3c(S(=O)(=O)O)cc(S(=O)(=O)O)cc3c2)C(=O)C1	-	51	43	4060
CC1=NN(c2ccc(N)cc2)C(=O)C1	0	0	-	-
